For assay [1] the following is noted: different animal models. From the text:
Leonard-BE, “Noradrenaline in basic models of depression.” European-Neuropsychopharmacol. April 1997; 7 Suppl 1: S11-6; discussion S71-3.

In assay [2] the test system is patients with panic Disorder with or without Agoraphobia. The settings on record: vs placebo, at some point in time.
The conditions of assay [3]: in vivo.
In assay [4] the test system is ν-adrenergic receptor.

With `CCOc1ccccc1OC(c1ccccc1)C1CNCCO1` (stereo not shown) [reboxetine], in assay [1], the anti-cholinergic activity entry is “only weak or no anti-cholinergic activity”. Besides, the occupational functioning entry in assay [2] was “better”. For the same compound, the antireserpine activity entry in assay [3] is listed as “potent antireserpine activity”. In assay [4], the “ability to desensitize ν-adrenergic receptor function” value is reported as “ability to desensitize”.

(Values after patent publication US6391876B1 (Pharmacia and Upjohn Company, priority 1998, dated 2002).)
